Measurements: US20100009950A1, “SUBSTITUTED ETHANOLAMINES” (AUSPEX PHARMACEUTICALS, INC., priority 2008, published 2010)

Conditions: 1 mg per mL liver microsome protein, 1 μM, 37° C., vs non-isotopically enriched compound
[1] = mark in second data column (bin 0%-50%)

SMILES | % increase of HLM degradation half-life (mark in first data column (bin −25%-0%)) | % increase of HLM degradation half-life [1]
OCc1cc(C(O)CNCCCCCCOCCCCc2ccccc2)ccc1O (stereo not shown) [Example 1, N-(2-Hydroxy-2-(4-hydroxy-3-(hydroxymethyl)phenyl)ethyl)-6-(4-phenylbutoxy)hexan-1-aminium 1-hydroxy-2-naphthoate, reference compound] | + (−25%-0%) | 
[2H]c1cc([2H])c(C([2H])([2H])C([2H])([2H])C([2H])([2H])C([2H])([2H])OCCCCCCNCC(O)c2ccc(O)c(CO)c2)c([2H])c1 (stereo not shown) [Example 2, N-(2-Hydroxy-2-(4-hydroxy-3-(hydroxymethyl)phenyl)ethyl)-6-(4-d3-phenyl-d8-butoxy)hexan-1-aminium 1-hydroxy-2-naphthoate] |  | + (0%-50%)
[2H]c1cc([2H])c(C([2H])([2H])C([2H])([2H])C([2H])([2H])C([2H])([2H])OC([2H])([2H])CCCCCNCC(O)c2ccc(O)c(CO)c2)c([2H])c1 (stereo not shown) [Example 3, N-(2-Hydroxy-2-(4-hydroxy-3-(hydroxymethyl)phenyl)ethyl)-6-(4-d3-phenyl-d8-butoxy)-d2-hexan-1-aminium 1-hydroxy-2-naphthoate] |  | + (0%-50%)
[2H]c1cc([2H])c(C([2H])([2H])C([2H])([2H])C([2H])([2H])C([2H])([2H])OC([2H])([2H])CCCCC([2H])([2H])NCC(O)c2ccc(O)c(CO)c2)c([2H])c1 (stereo not shown) [Example 4, N-(2-Hydroxy-2-(4-hydroxy-3-(hydroxymethyl)phenyl)ethyl)-6-(4-d3-phenyl-d8-butoxy)-d4-hexan-1-aminium 1-hydroxy-2-naphthoate] |  | + (0%-50%)

Like-named read-outs stand apart in the source and are kept apart here.
